This test concerns the target Amine oxidase [flavin-containing] B (Homo sapiens, UniProt P27338). Briefly: Fluorescence-Based (Inhibitor)-Screening Assay: In order to monitor MAO enzymatic activities and/or their inhibition rate by inhibitor(s) of interest, a fluorescence-based (inhibitor)-screening assay was set up. 3-(2-Aminophenyl)-3-oxopropanamine (kynuramine dihydrobromide, Sigma Aldrich), a non fluorescent compound was chosen as a substrate. Kynuramine is a non-specific substrate for both MAO-A ….

Amino acid sequences for entries named in this document (tags omitted).
UniProt P27338, whole entry: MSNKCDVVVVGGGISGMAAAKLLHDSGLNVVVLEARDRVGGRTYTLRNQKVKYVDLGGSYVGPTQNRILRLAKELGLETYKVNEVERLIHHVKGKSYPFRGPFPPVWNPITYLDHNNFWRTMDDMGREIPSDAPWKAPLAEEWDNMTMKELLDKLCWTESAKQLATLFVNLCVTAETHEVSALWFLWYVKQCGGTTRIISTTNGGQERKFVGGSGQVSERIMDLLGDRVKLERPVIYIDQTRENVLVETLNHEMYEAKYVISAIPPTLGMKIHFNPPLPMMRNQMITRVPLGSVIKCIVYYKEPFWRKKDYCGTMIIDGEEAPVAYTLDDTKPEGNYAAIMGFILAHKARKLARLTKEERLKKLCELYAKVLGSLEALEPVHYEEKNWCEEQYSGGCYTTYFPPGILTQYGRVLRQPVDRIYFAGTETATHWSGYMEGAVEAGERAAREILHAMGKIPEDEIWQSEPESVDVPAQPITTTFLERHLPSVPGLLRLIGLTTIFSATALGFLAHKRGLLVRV

Compound `N[C@H]1CC[C@H](N[C@@H]2C[C@H]2c2ccccc2)CC1` yielded a Ki greater than 40 µM.

The Ki is a measure of affinity in units of concentration, obtained from inhibition or displacement. The low end stands for a stronger hold on the target, the high end for a looser hold on the target.

(Values after ChEMBL document CHEMBL3886143, “(Hetero)aryl cyclopropylamine compounds as LSD1 inhibitors” (2016).)
